Test system: S. aureus DSM 6247
Conditions: 25% MHB2, 7.5 × 10^6 cfu/mL, 37°C, 20 h
Description: Minimal inhibitory concentrations (MICs) were determined using a liquid broth micro dilution assay in sterile 96-well plates (polystyrene F-bottom, Greiner Bio-One GmbH) and a total volume of 100 μL per well. […] After an incubation period of 4 h (37°C, 200 rpm), cells were diluted to 1.5 × 10^7 cfu/mL, based on a McFarland test, and 50 μL were added to each well (final concentration of 7.5 × 10^6 cfu/mL per well). […] The MIC was defined as the lowest peptide concentration preventing visible bacterial growth.

CC(C)C[C@H](NC(=O)[C@H](Cc1ccc(O)cc1)NC(=O)[C@@H]1CCCN1C(=O)[C@H](CCCNC(=N)N)NC(=O)[C@@H]1CCCN1C(=O)[C@H](Cc1ccccc1)NC(=O)[C@H](Cc1ccccc1)NC(=O)[C@@H]1CCCN1C(=O)[C@H](CCCNC(=N)N)NC(=O)C1(N)CCCCC1)C(=O)N[C@@H](CO)C(=O)N[C@@H](CCCNC(=N)N)C(=O)N1CCC[C@H]1C(=O)N[C@@H](CCCNC(=N)N)C(=O)N1CCC[C@H]1C(=O)N1CCC[C@H]1C(=O)N[C@@H](CCCNC(=N)N)C(=O)N1CCC[C@H]1C(=O)N[C@H](C(=O)N[C@@H](CCCNC(=N)N)C(N)=O)C(C)C [compound 99]
MIC, S. aureus DSM 6247: ≤ 16 µg/mL

— paper PMC8864165, “Functional Effects of ARV-1502 Analogs Against Bacterial Hsp70 and Implications for Antimicrobial Activity” (Frontiers in Chemistry, 2022)
